Assay: Skin permeation, Franz diffusion cells
Format: in vitro ADME, human
Procedure: The flux can be measured with a standard procedure using Franz diffusion cells, and the experiments were done on human cadaver skin. With Franz cells, in each Franz diffusion cell a disc (diameter of 25 mm) of human cadaver skin is placed on the receptor compartment. A transdermal delivery system is cut the same size as the skin and placed over the diffusion area in the center of the receptor. The donor compartment is then added and clamped to the assembly. At time 0, receptor medium solution 14 mL is added into the receptor compartment and the cell maintained at 32° C. Samples of the receptor compartment are taken periodically to determine the skin flux and analyzed by HPLC.
Skin permeation of various formulations were tested. The results are provided in FIGS. 1, and 2 and Tables 5 and 6. Higher the amount of the galantamine in the adhesives will increase the penetration, but when over the saturation point, the transdermal system will crystalize, and result a low penetration rate.
When adding an enhancer, it might improve the penetration rate. […] When increase the amount of the enhancer, it might not improve the penetration rate.
A co-solvent helps dissolving the drug in the adhesive but it might also help with the penetration rate.

Substance	Enhancement Ratio
oleoyl macrogol-6 glycerides [Labrafil M 1944CS]	1
tocopherol polyethylene glycol succinate [Vitamin E TPGS]	1

Reference: US20180008612A1 (priority 2016, published 2018)
